Ke data for three compounds are collected here from ChEMBL document CHEMBL3400069, “The amide linker in nonpeptide neurotensin receptor ligands plays a key role in calcium signaling at the neurotensin receptor type 2” (Bioorg Med Chem Lett, 2015).

Chains of the proteins cited; added tags and fusions are not shown.
UniProt P20789, whole entry: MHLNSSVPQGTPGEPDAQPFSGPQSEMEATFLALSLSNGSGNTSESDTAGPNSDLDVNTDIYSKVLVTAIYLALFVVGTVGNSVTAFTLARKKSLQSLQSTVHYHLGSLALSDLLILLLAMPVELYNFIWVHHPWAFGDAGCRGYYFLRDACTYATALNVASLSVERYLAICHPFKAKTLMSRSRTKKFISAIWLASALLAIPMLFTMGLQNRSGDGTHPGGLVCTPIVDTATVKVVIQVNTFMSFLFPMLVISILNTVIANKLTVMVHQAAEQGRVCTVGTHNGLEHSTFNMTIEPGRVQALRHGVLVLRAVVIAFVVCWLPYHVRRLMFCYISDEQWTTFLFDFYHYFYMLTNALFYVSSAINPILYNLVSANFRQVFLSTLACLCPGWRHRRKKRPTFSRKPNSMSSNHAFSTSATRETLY

Calls of active or inactive are those of the source. The rule behind the calls is not given here.

For test [1], the target named is Neurotensin receptor type 1 (Rattus norvegicus) (UniProt P20789). Kind of test: Antagonist activity at rat NTS1 overexpressed in CHO-k1 cells assessed as blockade of neurotensin-mediated calcium mobilization after 15 mins by FLIPR assay. The format is functional, cell-based.
Test [2] concerns the target T1, Neurotensin receptor type 2 (Rattus norvegicus) (UniProt Q63384).
T1 sequence (whole entry): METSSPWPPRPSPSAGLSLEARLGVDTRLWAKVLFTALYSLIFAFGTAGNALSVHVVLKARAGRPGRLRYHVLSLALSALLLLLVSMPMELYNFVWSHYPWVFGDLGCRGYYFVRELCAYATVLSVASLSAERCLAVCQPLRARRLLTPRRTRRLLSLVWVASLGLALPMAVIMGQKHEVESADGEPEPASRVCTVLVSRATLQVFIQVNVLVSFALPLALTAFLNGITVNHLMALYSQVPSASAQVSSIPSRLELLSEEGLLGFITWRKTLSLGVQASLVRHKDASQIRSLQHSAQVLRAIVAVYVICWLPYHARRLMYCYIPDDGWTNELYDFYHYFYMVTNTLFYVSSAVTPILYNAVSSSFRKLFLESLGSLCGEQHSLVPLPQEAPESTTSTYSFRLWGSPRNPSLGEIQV
The note with it: CHO-K1.

Regarding `COc1cccc(OC)c1-c1cc(NC(=O)C2(C(=O)O)CCCCC2)nn1-c1cccc2ccccc12`, the Ke in test [1] stood at 4.81 µM; in test [2] it was 181 nM.

For the compound `COc1cccc(OC)c1-c1cc(NC(=O)C2(C(=O)O)CCCCC2)nn1-c1ccnc2cc(Cl)ccc12`, the Ke is 4.39 µM in test [1] and 3050 nM in test [2].

`COc1cccc(OC)c1-c1cc(CN[C@H](C(=O)O)C2CCCCC2)nn1-c1ccnc2cc(Cl)ccc12`: the Ke entry in test [1] and in test [2] was “inactive” in each case.
